Read-outs that look alike come from different tables or passages of the source.
Tests used:
[1] = Solubilities in water (20° C.); assay type: physicochemical
From the text: The compound according to the invention allows therefore to increase the solubility of curcumin derivatives in aqueous solutions which in turn enables IV administrations and/or increases their bioavailability. The table below presents the solubilities of the various intermediates.

[2] = Influence of different cyclodextrins on curcumin solubility; assay type: physicochemical; settings: FIGS. 11a and 11b
From the text: In order to test the solubility of curcumin, it was derivatised with one of the following cyclodextrins: • beta-cyclodextrin (Cavamax W7 Pharma lot 70P277), • alpha-cyclodextrin (Cavamax W6 Pharma Wacker 60P304), • RAMEB Randomly Methylated cyclodextrins (Wacker, lot 71P015), • HP-gamma-CD (Wacker, lot 83P002), • Crismeb (roquette lot 765342) • HP-beta-CD (wacker lot 74T003), • beta-cyclodextrin (Cavamax W7 Pharma lot 70P277) plus alpha-cyclodextrin (Cavamax W6 Pharma Wacker 60P304)

[3] = Stability of curcumin lysinate in blood, sheep; assay type: in vitro ADME
Description: (§1) Weigh+/−precisely 5.14 mg of curcumin lysinate in a 100 ml flask
(§2) Bring up to the gauge line with methanol for HPLC.
(§3) Venous blood from all the species studied was collected in citrated tubes and homogenised.
(§4) Collect 950 μL of blood. Add 50 μl of the parent solution of curcumin lysinate i.e. a final concentration of 5.10-5 M of curcumin lysinate.
(§5) Homogenise. Incubation time: one hour at 5° C., 20° C. and 37° C.
(§6) Following incubation each sample is centrifuged in order to obtain the PPP (Platelet Poor Plasma)
(§7) Conditions of preparation: 2000 G, Duration: 10 minutes, Temperature: 5° C. Centrifuge Eppendorf 5804R
(§8) 100 μl pp of each sample is collected, to which is added 300 μl of methanol (precipitation of proteins).
(§9) Centrifuging: 10000 G Duration: 10 minutes Temperature 5° C.
(§10) The floating substance is dosed by HPLC.

[4] = Stability of curcumin lysinate in blood, cow; assay type: in vitro ADME
Description: as §1, §2, §3, §4, §5, §6, §7, §8, §9, §10

[5] = Solubility and stability of curcumin lysinate in aqueous HP-beta-CD solution with lysine base (HPLC dosage); assay type: physicochemical; settings: 1,028 g curcumin lysinate, 6.56 g HP-beta-CD, 292.4 mg L-Lysine base in 100 ml distilled water
[6] = Stability of curcumin lysinate in blood, horse; assay type: in vitro ADME
Description: as §1, §2, §3, §4, §5, §6, §7, §8, §9, §10

[7] = Stability of curcumin lysinate in blood, rabbit; assay type: in vitro ADME
Description: as §1, §2, §3, §4, §5, §6, §7, §8, §9, §10

[8] = Stability of curcumin lysinate in blood, rat; assay type: in vitro ADME
Description: as §1, §2, §3, §4, §5, §6, §7, §8, §9, §10

[9] = Stability of curcumin lysinate in blood, man; assay type: in vitro ADME; settings: human blood
Description: as §1, §2, §3, §4, §5, §6, §7, §8, §9, §10

[10] = Stability of curcumin lysinate in blood, dog; assay type: in vitro ADME; settings: initial 5.10-5 M
Description: as §1, §2, §3, §4, §5, §6, §7, §8, §9, §10

[11] = Stability of curcumin lysinate in blood, pig; assay type: in vitro ADME
Description: as §1, §2, §3, §4, §5, §6, §7, §8, §9, §10

[12] = one hour at 5° C., initial 5.10-5 M

With “hydroxypropyl-gamma-cyclodextrin [HP-gamma-CD]” the solubility [1] was “+/−500 mg/ml” and the “effect of the cyclodextrin on curcumin solubility” value [2] was “clearly increase the solubility of curcumin”.
In the case of Curcumin Lysinate, the “% of initial concentration” value ([3]; one hour at 5° C.) is reported as 20%, the “concentration of curcumin lysinate after incubation in blood” value (shortened to “concentration … in blood”) [3, 12] is reported as 1.10-5 M and the “concentration … in blood” value ([3]; one hour at 20° C.) is reported as “below detectable limit”. The “concentration … in blood” value ([3]; one hour at 37° C.) was “below detectable limit”, the “% of initial concentration” value ([4]; one hour at 5° C.) was 20% and the “concentration … in blood” value [4, 12] was 1.10-5 M. The “concentration … in blood” value ([4]; one hour at 20° C.) was “below detectable limit”, the “concentration … in blood” value ([4]; one hour at 37° C.) was “below detectable limit” and the “concentration of curcumin lysinate in solution, optimised conditions” value [5] was 2.10^−2 M. For the same substance, the “% of the initial concentration” value ([6]; one hour at 5° C.) was 98%, the “% of the initial concentration” value ([6]; one hour at 20° C.) was 49% and the “% of the initial concentration” value ([6]; one hour at 37° C.) was 40%. The “% of the initial concentration” value ([7]; one hour at 5° C.) was 94%, the “% of the initial concentration” value ([7]; one hour at 20° C.) was 42% and the “% of the initial concentration” value ([7]; one hour at 37° C.) was 31%. For the same substance, the solubility ([1]; Water (20° C.)) was “+/−0.05 mg/ml”, the “% of the initial concentration” value ([8]; one hour at 5° C.) was 96% and the “% of the initial concentration” value ([8]; one hour at 20° C.) was 47%. For the same substance, the “% of the initial concentration” value ([8]; one hour at 37° C.) was 39%, the “% of the initial concentration” value ([9]; one hour at 5° C.) was 93% and the “% of the initial concentration” value ([9]; one hour at 20° C.) was 40%. For the same substance, the “% of the initial concentration” value ([9]; one hour at 37° C.) was 26%, the “concentration … in blood” value ([10]; one hour at 5° C.) was “below detectable limit” and the “concentration … in blood” value ([10]; one hour at 20° C.) was “below detectable limit”. For the same substance, the “concentration … in blood” value ([10]; one hour at 37° C.) was “below detectable limit”, the “% of initial concentration” value ([11]; one hour at 5° C.) was 20% and the “concentration … in blood” value [11, 12] was 1.10-5 M. The “concentration … in blood” value ([11]; one hour at 20° C.) was “below detectable limit” and the “concentration … in blood” value ([11]; one hour at 37° C.) was “below detectable limit”.
“hydroxypropyl-gamma-cyclodextrin complex of curcumin lysinate [NDS28]” gave a solubility [1] of over 21 mg/mL.
